Screens as filed in PubChem BioAssay.
Compounds with a hit are over-represented: about 1.8% of the library has one in this group of screens.
Cneo AK release: Cryptococcus neoformans lysis via adenylate kinase release. C. neoformans lysis, adenylate kinase release luminescence, 4 h; normalised: neutral wells 0, clomiphene wells 100. lysis activity, % at 15 µM. 360,000 tested, 0.2% active;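 active means mean lysis activity across replicates of at least 80%, whatever share of replicates individually reach that level; inactive means mean lysis activity below 80%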
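Signal: Adenylate kinase release luminescence | Assay system: Log-phase Cryptococcus neoformans yeast cells | Input: Cells at 5 × 10^6 per mL | Buffer or medium: Fresh YPD growth medium | Compound: Single dose | Schedule: Static 4 h at 37 °C with compound, 1 h detection | Controls: Clomiphene | Read-out: Luminescence rise reflecting yeast cell lysis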
E-selectin induc: E-selectin induction on HUVECs. P16581. HUVEC E-selectin immunofluorescence imaging; normalized: neutral wells 0, TNF-alpha wells 100. activation, % at 7.58 µM. 260,000 tested, 0.37% active;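 active means mean E-selectin-positive cell signal at least 10% of the positive control, reached in at least 60% of replicates, without over 20% cell loss; inconclusive means no rule given, readout overlaps actives, possibly toxicity-flagged; inactive means the rest, including those meeting only one limit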
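Test system – human umbilical vein endothelial cells (HUVEC), E-selectin induction · Input – 3,000 HUVEC seeded per well · Buffer or medium – EGM-2, gelatin · Compound dosing – single-point compound dose · Detection – immunofluorescence imaging · Measure – percent E-selectin-positive cells · Controls – TNF-alpha high, DMSO low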
Yeast UUG start: modulators of start codon recognition fidelity in yeast. S. cerevisiae UUG-firefly luciferase reporter, luminescence/redox ratio. activity score, % at 18.7 µM. 0.13% of 350,000 active. AID 602363;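 active = replicate mean at a twofold rise or more, about +100% in these data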;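 also: firefly luciferase made from a UUG start codon reports start codon fidelity; reporter light over untreated wells divided by growth signal over untreated wells; some hits fall short of that in this replicate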
DENV2 CPE rescue: protects cells from dengue virus 2 cytopathic effect; CPE inhibition, % at 9.99 µM; DENV2-infected cells, cytopathic effect rescue, plate reader; 350,000 tested, 1.7% active; in the data active means CPE inhibition above about 20%, passing the limit was not always enough; inconclusive means no clear call, values can overlap the other calls; tested in BHK-21 cells;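 further: 0% = median of neutral control wells and 100% = median of positive control wells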
* = called active by the depositor; ? = inconclusive; nt = no result given.

SMILES	Cneo AK release	E-selectin induc	Yeast UUG start	DENV2 CPE rescue
COc1cccc(CNC(=O)CCNC(=O)c2ccco2)c1	-1	2	-21	-4
C[C@@H]1CN([C@H](C)CO)C(=O)c2cc(NS(C)(=O)=O)ccc2O[C@@H](C)CCCCO[C@@H]1CN(C)S(=O)(=O)c1ccc(Cl)cc1	-3	0	19	1
C[C@@H]1CN([C@@H](C)CO)C(=O)c2cc(NS(C)(=O)=O)ccc2O[C@@H](C)CCCCO[C@@H]1CN(C)S(=O)(=O)c1ccc(Cl)cc1	6	0	12	20*
C[C@@H]1CCCCO[C@H](CN(C)S(=O)(=O)c2ccc(Cl)cc2)[C@H](C)CN([C@H](C)CO)C(=O)c2cc(N(C)C)ccc2O1	-1	1	-8	89*
Cc1ccc(S(=O)(=O)N(C)C[C@H]2OCCCC[C@@H](C)Oc3ccc(NS(=O)(=O)c4c(C)noc4C)cc3C(=O)N([C@@H](C)CO)C[C@@H]2C)cc1	-4	nt	-10	29*
Cc1ccc(S(=O)(=O)Nc2ccc3c(c2)C(=O)N([C@@H](C)CO)C[C@@H](C)[C@H](CN(C)S(=O)(=O)c2ccc(Cl)cc2)OCCCC[C@@H](C)O3)cc1	0	0	-10	83*
Cc1ccc(S(=O)(=O)Nc2ccc3c(c2)C(=O)N([C@@H](C)CO)C[C@H](C)[C@H](CN(C)S(=O)(=O)c2ccc(Cl)cc2)OCCCC[C@@H](C)O3)cc1	103*	0	-9	-24
Cc1ccc(S(=O)(=O)N(C)C[C@H]2OCCCC[C@H](C)Oc3ccc(NS(=O)(=O)c4ccc(Cl)cc4)cc3C(=O)N([C@H](C)CO)C[C@H]2C)cc1	0	0	-1	-2
Cn1ccc2c(N3CCCC3)cc3c(c21)C1CCC3O1 (centres undefined)	1	0	-12	-9
Cn1ccc2c(N3CCOCC3)cc3c(c21)C1CCC3O1 (centres undefined)	2	-2	-17	48*
COc1ccc(C(C)(O)c2nc(-c3ccc(OC)c(OC)c3)cs2)cc1 (centres undefined)	0	0	-1	-10
COc1ccc(-c2csc(C(C)(O)c3ccc(F)c(F)c3)n2)cc1OC (centres undefined)	-1	1	-6	21*
O=C(COc1ccc(Cl)cc1)Nc1nnc(S(=O)(=O)N2CCCCCC2)s1	1	115*	-15	-9
Cc1ccc(OCC(=O)Nc2nnc(S(=O)(=O)N3CCCCCC3)s2)cc1C	-8	0	-3	-6
O=C(C[C@H]1C=C[C@H](NC(=O)C2CC2)[C@@H](CO)O1)Nc1ccccc1	2	0	-16	-2
C/C(=N\NC(=O)c1cc(-c2ccc(C)s2)nc2ccccc12)c1cccnc1	-16	nt	1	?
C/C(=N\NC(=O)c1cc(-c2ccccc2C)nc2ccccc12)c1cccnc1	0	50*	-12	14
O=[N+]([O-])c1ccc(N2CCN(c3ccc([N+](=O)[O-])cc3CO)CC2)c(CO)c1	0	45*	-17	8
C[C@H]1CN([C@@H](C)CO)C(=O)c2cc(Br)cnc2O[C@H]1CN(C)C(=O)C1CCOCC1	-1	1	-10	24*
COc1cccc(C#Cc2cnc3c(c2)C(=O)N([C@@H](C)CO)C[C@@H](C)[C@H](CN(C)C(=O)C2CCOCC2)O3)c1	31	0	14	0
CC(C)CC#Cc1cnc2c(c1)C(=O)N([C@H](C)CO)C[C@@H](C)[C@H](CN(C)C(=O)C1CCOCC1)O2	3	1	15	38*
COc1cccc(C#Cc2cnc3c(c2)C(=O)N([C@H](C)CO)C[C@@H](C)[C@@H](CN(C)C(=O)C2CCOCC2)O3)c1	81*	0	12	nt
CCCNC(=O)N1C[C@@H](C)[C@H](OC)CN(C)C(=O)c2ccc(NC(=O)C3CCC3)cc2OC[C@H]1C	nt	0	nt	40*
COc1cccc(NC(=O)Nc2ccc3c(c2)OC[C@H](C)NC[C@@H](C)[C@@H](OC)CN(C)C3=O)c1	0	0	7	5
COc1ccc(NC(=O)Nc2ccc3c(c2)OC[C@H](C)NC[C@@H](C)[C@H](OC)CN(C)C3=O)cc1	1	0	9	-5
CCCNC(=O)N1C[C@H](C)[C@@H](OC)CN(C)C(=O)c2ccc(NC(=O)C3CCC3)cc2OC[C@H]1C	-2	0	nt	12
COc1cccc(NC(=O)Nc2ccc3c(c2)OC[C@H](C)NC[C@@H](C)[C@H](OC)CN(C)C3=O)c1	7	0	-10	22*

Part of the list above, with values under each structure:
Every second line gives: Cneo AK release | E-selectin induc | Yeast UUG start | DENV2 CPE rescue
COc1cccc(CNC(=O)CCNC(=O)c2ccco2)c1
→ -1 | 2 | -21 | -4
Cc1ccc(S(=O)(=O)Nc2ccc3c(c2)C(=O)N([C@@H](C)CO)C[C@H](C)[C@H](CN(C)S(=O)(=O)c2ccc(Cl)cc2)OCCCC[C@@H](C)O3)cc1
→ 103* | 0 | -9 | -24
C[C@H]1CN([C@@H](C)CO)C(=O)c2cc(Br)cnc2O[C@H]1CN(C)C(=O)C1CCOCC1
→ -1 | 1 | -10 | 24*
COc1ccc(C(C)(O)c2nc(-c3ccc(OC)c(OC)c3)cs2)cc1 (centres undefined)
→ 0 | 0 | -1 | -10
